Conditions: 5 μmol dm^−3 prodrug, NADPH, pH 7.4, 37° C.

9-[(4,6-O-Ethylidene-β-D-glucopyranosyl)oxy]-5,8,8a,9-tetrahydro-5-(4-(1-(5-nitrothien-2-yl)ethoxy)-3,5-dimethoxyphenyl)furo[3′,4′:6,7]naphtha[2,3-d]-1,3-dioxol-6(5aH)-one [Example 1]
Rate of drug release (pmol/min/mg protein) Anoxic (Anoxic (nitrogen)): 95 pmol/min/mg protein
Rate of drug release (pmol/min/mg protein) Oxic (Oxic (air)): 0 pmol/min/mg protein

— patent publication US20090202571A1, “Bioreductively-activated prodrugs” (HOPNIC LABORATORY CO., LTD., priority 2004, published 2009)
